Tested on: MDA-MB-468 cells
Test: Apoptosis assay
Format: cell-based, human
Conditions: MDA-MB-468 cells (Figure S5)

CC(C)NC[C@@H](C(=O)N1CCN(c2ncnc3c2[C@H](C)C[C@H]3O)CC1)c1ccc(Cl)cc1 [GDC-0068, reference compound] was tested, and the apoptosis induced was ≤ 3%.

— paper PMC8819633 (Journal of medicinal chemistry, 2021)
